Test results taken from ChEMBL document CHEMBL4818991, “Recent Advances in β2-Agonists for Treatment of Chronic Respiratory Diseases and Heart Failure” (J Med Chem, 2020).

Organism: Cavia porcellus
Test: Inhibition of acetylcholine-induced bronchoconstriction in guinea pig assessed as duration of action by measuring half life
Format: functional

SMILES: O=c1ccc2c([C@@H](O)CNCCCCCCOCC(F)(F)c3ccccc3)ccc(O)c2[nH]1 [ABEDITEROL]
- T1/2: 36 h
